From US20230146795A1, “ENHANCEMENT OF ANTI-TUMOR ACTIVITY OF SHP2 INHIBITOR PYRIMIDINONE IN COMBINATION WITH NOVEL CANCER MEDICINES IN CANCERS” (TAIHO PHARMACEUTICAL CO., LTD., priority 2020, published 2023)

Tests used:
MV-4-11 = experiment: Anti-proliferation assay (CellTiter-Glo 2.0), combination index, MV-4-11; format: cell-based; settings: Compound 1 123 + combination drug 41.2 nmol/L (1:0.3)
Method: Cell lines were obtained from ATCC or Health Science Research Resources Bank.
384 well culture plate (781086, Greiner Bio-One International) was used for cell survival rate measurement assay. Each cell lines were collected by ordinary method, then suspended in indicated medium containing 10% fetal bovine serum in table 3. The number of cells seeded per well was set to 500 cells/20 μL. After incubation at 37° C. for 24 hours under 5% CO2, Compound 1 and additional compound having an antitumor effect or a vehicle (DMSO) was added to each well by using D300e Digital Dispenser (Tecan). The concentration of Compound 1 was set to 10 concentrations. The concentration of each anti-cancer reagents set to 8 concentrations including 0 nM. After adding the medicine to the cells, the cells were further incubated at 37° C. for 3 days under 5% CO2. Cell survival rates were calculated by adding 20 μL of CellTiter-Glo(registered trademark) 2. 0 (Promega) solution to each well, incubating the cells at room temperature for 10 minutes, and then measuring the chemiluminescence intensity of each well using a plate reader (ARVO).
A combination index (CI) value at each combined concentration of the medicines was determined.

[1] = tested on: human colorectal cancer cell line SW837; experiment: Antitumor effect on SW837 tumor subcutaneously implanted to SCID-Beige mouse; format: in vivo; settings: cetuximab alone, 1 mg/kg/day intra-peritoneal on day 1, 4, 8, 11, 15, 18, 22, 25; day of assessment
Method: With reference to Clin Cancer Invest. 2011, 121 (11): 4311-4321, a cell suspension of a human gastric cancer line SW837 (available from American Type Culture Collection) was subcutaneously implanted to 6-week-old male SCID-Beige mice (Charles River Japan, Inc.) at 8×10^6 cells/mouse. For grouping (n=5/group), after the cell suspension implantation, tumor volumes (TV) were calculated according to the expression given below, and mice having TV of 100 to 200 mm^3 were selected and assigned such that average TV was equal among groups. The day at which the grouping was carried out was defined as Day 0.
TV (mm^3)=(Major axis×Minor axis^2)/2 (units for the major axis and the minor axis were mm).
Compound 1 at 25 mg/kg/day was orally administered once a day for 28 days. And cetuximab at 1 mg/kg/day (in terms of erbitux) was administered intra-peritoneal injection on day 1, 4, 8, 11, 15, 18, 22, 25. […]
Antitumor effects were evaluated by using the difference between the average values of tumor volumes (TV) in two groups to be compared at the day of assessment, as an index. TV was calculated according to the expression given below from TV values on the day of measurement and on the day of grouping. Also, T/C (%) was calculated from the average RTV values in medicine administration groups and a control group. […]

| Compound | CI (MV-4-11) | T/C (%) [1] [%] |
| --- | --- | --- |
| CNC(=O)c1cc(Oc2ccc(NC(=O)Nc3ccc(Cl)c(C(F)(F)F)c3)cc2)ccn1 [Sorafenib] | 0.158 |  |
| cetuximab: antibody molecular targeting drug, EGFR inhibitor |  | 37.7 |
